Test results reported in patent EP4837910A1, “ISOXAZOLINE COMPOUND AND PREPARATION METHOD THEREFOR, HERBICIDAL COMPOSITION, AND USE” (dated 2026).

Columns and labels:
Zea mays = test: Pre-emergence test, crop damage (greenhouse, sprayed immediately after sowing); details: after 4 weeks in greenhouse, fresh weight control rate
From the text: Monocotyledonous and dicotyledonous weed seeds as well as major crop seeds were placed in plastic pots filled with soil and then covered with 0.5-2 cm of soil. The test compounds of the present invention were individually dissolved with acetone, then added with Tween® 80, diluted with certain amount of water to obtain solutions of certain concentrations, and sprayed immediately after sowing. After drug application, the experimental results on weeds were observed after 4 weeks of cultivation in a greenhouse. Table 3 Results of pre-emergence test on weeds

[1] = tested on: Monocotyledonous and dicotyledonous weed; test: Pre-emergence test on weeds (greenhouse, sprayed immediately after sowing); details: after 4 weeks in greenhouse, fresh weight control rate
[2] = tested on: Monocotyledonous and dicotyledonous weed; test: Post-emergence test on weeds (greenhouse, spray tower); details: Dosage 240 g a.i./ha, after 3 weeks of cultivation in a greenhouse, fresh weight control rate

| Structure (SMILES) | activity level of plant damage (growth control rate), Zea mays (Zea mays; Dosage 240 g a.i./ha) | activity level of plant damage (growth control rate), Descurainia sophia ([1]; Dosage 240 g a.i./ha) | activity level of plant damage (growth control rate), Digitaria sanguinalis ([1]; Dosage 240 g a.i./ha) | activity level of plant damage (growth control rate), Lolium multiflorum ([1]; Dosage 240 g a.i./ha) | activity level of plant damage (growth control rate), Setaria viridis ([1]; Dosage 240 g a.i./ha) | Avena fatua, activity level of plant damage (growth control rate) [2] | activity level of plant damage (growth control rate), Zea mays (Zea mays; Dosage 250 g a.i./ha) | activity level of plant damage (growth control rate), Digitaria sanguinalis ([1]; Dosage 250 g a.i./ha) | activity level of plant damage (growth control rate), Setaria viridis ([1]; Dosage 250 g a.i./ha) |
| --- | --- | --- | --- | --- | --- | --- | --- | --- | --- |
| C=C[C@]1(C(=O)N[C@@H](C)C(=O)N(C)OC)CC(c2cc(F)cc(Br)c2)=NO1 | 2 (Level 2: growth control rate greater than or equal to 10% and less than 20%) | 6 (Level 6: growth control rate greater than or equal to 70% and less than 80%) | 9 | 9 | 8 (Level 8: growth control rate greater than or equal to 90% and less than 100%) | 9 | – | – | – |
| C=C[C@]1(C(=O)N[C@@H](C)C(=O)N(C)OC)CC(c2cc(F)cc(OC(F)(F)F)c2)=NO1 | 0 | 9 | 8 (Level 8: growth control rate greater than or equal to 90% and less than 100%) | 9 | 9 | – | – | – | – |
| CC[C@@]1(C(=O)N[C@@H](C)C(=O)NOC)CC(c2cc(F)cc(Br)c2)=NO1 | 0 | – | – | 8 (Level 8: growth control rate greater than or equal to 90% and less than 100%) | – | – | – | – | – |
| C=CC1(C(=O)O[C@@H](C)C(=O)N(C)OC)CC(c2cc(F)cc(F)c2)=NO1 (stereo partly drawn) | 0 | 8 (Level 8: growth control rate greater than or equal to 90% and less than 100%) | – | 9 | – | – | – | – | – |
| C=C[C@]1(C(=O)N[C@@H](C)C(=O)N(C)OC)CC(c2ccc(F)c(F)c2)=NO1 | 0 | – | – | 9 | – | – | – | – | – |
| CON(C)C(=O)[C@H](C)NC(=O)C1(C)CC(c2cc(F)cc(F)c2)=NO1 (stereo partly drawn) | 2 (Level 2: growth control rate greater than or equal to 10% and less than 20%) | – | 8 (Level 8: growth control rate greater than or equal to 90% and less than 100%) | 9 | – | – | – | – | – |
| CON(C)C(=O)[C@@H](C)NC(=O)C1(C(F)(F)F)CC(c2cc(F)cc(F)c2)=NO1 (stereo partly drawn) | 2 (Level 2: growth control rate greater than or equal to 10% and less than 20%) | – | 9 | 6 (Level 6: growth control rate greater than or equal to 70% and less than 80%) | 9 | – | – | – | – |
| C=C[C@]1(C(=O)N[C@@H](C)C(=O)N(C)OC(C)C)CC(c2cc(F)cc(F)c2)=NO1 | 2 (Level 2: growth control rate greater than or equal to 10% and less than 20%) | – | 5 (Level 5: growth control rate greater than or equal to 50% and less than 70%) | 7 (Level 7: growth control rate greater than or equal to 80% and less than 90%) | 5 (Level 5: growth control rate greater than or equal to 50% and less than 70%) | – | – | – | – |
| C=C[C@]1(C(=O)N[C@@H](C)C(=O)NOCC)CC(c2cc(F)cc(F)c2)=NO1 | 0 | 7 (Level 7: growth control rate greater than or equal to 80% and less than 90%) | – | 9 | – | – | – | – | – |
| CON(C)C(=O)[C@H](C)NC(=O)[C@@]1(C2CC2)CC(c2cc(F)cc(F)c2)=NO1 | 0 | – | 8 (Level 8: growth control rate greater than or equal to 90% and less than 100%) | 9 | 9 | – | – | – | – |
| C=C[C@]1(C(=O)N[C@H](C(=O)N(C)OC)C2CC2)CC(c2cc(F)cc(F)c2)=NO1 | 0 | 9 | 9 | 9 | 9 | – | – | – | – |
| C=C[C@]1(C(=O)N[C@H](C)C(=O)NOC)CC(c2cc(F)cc(F)c2)=NO1 | 1 (Level 1: growth control rate less than 10%) | – | – | 8 (Level 8: growth control rate greater than or equal to 90% and less than 100%) | – | – | – | – | – |
| C=C[C@]1(C(=O)N[C@@H](Cc2ccccc2)C(=O)N(C)OC)CC(c2cc(F)cc(F)c2)=NO1 | 0 | – | 5 (Level 5: growth control rate greater than or equal to 50% and less than 70%) | – | – | – | – | – | – |
| CC[C@]1(C(=O)N[C@@H](C)C(=O)N(C)OC)CC(c2cc(Br)cc(Br)c2)=NO1 | 0 | – | 9 | 9 | 9 | – | – | – | – |
| C=C[C@]1(C(=O)N[C@@H](CC(C)C)C(=O)N(C)OC)CC(c2cc(F)cc(F)c2)=NO1 | 0 | – | – | 7 (Level 7: growth control rate greater than or equal to 80% and less than 90%) | – | – | – | – | – |
| C=CC1(C(=O)N[C@@H](C)C(=O)N(C)OC)CC(c2ccc(F)c(Cl)c2)=NO1 (stereo partly drawn) | 0 | – | – | 5 (Level 5: growth control rate greater than or equal to 50% and less than 70%) | – | – | – | – | – |
| C=CC1(C(=O)N[C@H](C)C(=O)N(C)OC)CC(c2cc(F)cc(F)c2)=NO1 (stereo partly drawn) | – | – | – | – | – | – | 0 | 9 | 9 |
| C=CC1(C(=O)N[C@H](C)C(=O)NOC)CC(c2cc(F)cc(F)c2)=NO1 (stereo partly drawn) | 0 | – | – | 8 (Level 8: growth control rate greater than or equal to 90% and less than 100%) | – | – | – | – | – |
| C=C[C@]1(C(=O)N[C@@H](C)C(=O)N(C)OC)CC(c2cc(Cl)cc(OC(F)(F)F)c2)=NO1 | 1 (Level 1: growth control rate less than 10%) | 6 (Level 6: growth control rate greater than or equal to 70% and less than 80%) | 9 | 9 | 9 | – | – | – | – |
| C=C[C@]1(C(=O)NC(C(=O)N(C)OC)C2CC2)CC(c2cc(F)cc(F)c2)=NO1 (stereo partly drawn) | 0 | – | 6 (Level 6: growth control rate greater than or equal to 70% and less than 80%) | 8 (Level 8: growth control rate greater than or equal to 90% and less than 100%) | 6 (Level 6: growth control rate greater than or equal to 70% and less than 80%) | – | – | – | – |
| CC[C@@]1(C(=O)N[C@@H](C)C(=O)NOC)CC(c2cc(Cl)cc(Cl)c2)=NO1 | 2 (Level 2: growth control rate greater than or equal to 10% and less than 20%) | – | – | 9 | – | – | – | – | – |
| C=C[C@]1(C(=O)N[C@@H](CCCCN)C(=O)N(C)OC)CC(c2cc(F)cc(F)c2)=NO1 | 1 (Level 1: growth control rate less than 10%) | – | 5 (Level 5: growth control rate greater than or equal to 50% and less than 70%) | – | – | – | – | – | – |
| CON(C)C(=O)[C@H](C)NC(=O)[C@]1(CF)CC(c2cc(F)cc(F)c2)=NO1 | 2 (Level 2: growth control rate greater than or equal to 10% and less than 20%) | 9 | 5 (Level 5: growth control rate greater than or equal to 50% and less than 70%) | 9 | – | – | – | – | – |
| C=CC1(C(=O)N[C@@H](C)C(=O)NOCC)CC(c2cc(F)cc(F)c2)=NO1 (stereo partly drawn) | 0 | 8 (Level 8: growth control rate greater than or equal to 90% and less than 100%) | – | 5 (Level 5: growth control rate greater than or equal to 50% and less than 70%) | – | – | – | – | – |
